Patent US7030242B2, “Selective inhibition of aggrecanase in osteoarthritis treatment” (Pfizer Inc, priority 1999, dated 2006)

Target: T1, Human recombinant collagenase-1 (Homo sapiens, UniProt P03956)
T1 sequence (P03956 100-469): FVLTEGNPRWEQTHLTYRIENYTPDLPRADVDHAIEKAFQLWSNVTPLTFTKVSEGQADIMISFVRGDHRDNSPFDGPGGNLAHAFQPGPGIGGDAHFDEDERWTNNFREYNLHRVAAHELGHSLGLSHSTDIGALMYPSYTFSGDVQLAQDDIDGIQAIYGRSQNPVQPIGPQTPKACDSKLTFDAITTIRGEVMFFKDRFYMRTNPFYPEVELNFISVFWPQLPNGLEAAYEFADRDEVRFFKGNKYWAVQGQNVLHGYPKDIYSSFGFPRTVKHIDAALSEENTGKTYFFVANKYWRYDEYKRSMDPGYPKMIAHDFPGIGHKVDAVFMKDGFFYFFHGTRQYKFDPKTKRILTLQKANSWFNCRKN
Assay: Inhibition of human collagenase-1 (recombinant collagenase-1 assay)
Type: biochemical
Conditions: human recombinant enzyme, fluorogenic peptide substrate

Structure (SMILES): CNC(=O)[C@H](Cc1ccc(OC)cc1)NC(=O)[C@@H](CC(=O)NO)CC(C)C [drawing 51, reference compound]
- IC50: 3 nM
